Measurements published in PMC9099123 (Clinical and Translational Science, 2022).

Assay: Safety and tolerability
Format: in vivo, human

CNC(=O)c1ccc(N2C(=S)N(c3ccc(C#N)c(C(F)(F)F)c3)C(=O)C2(C)C)cc1F [enzalutamide]
patients reporting TEAEs (following administration of enzalutamide, 12 TEAEs, five patients): 20.8%
patients reporting TEAEs (following administration of the cocktail in combination with enzalutamide, two TEAEs, one patient): 4.3%
